This test addresses T1, human CCR1 (Homo sapiens, UniProt P32246).
T1 construct: expressed in transfected cells; host or cells: HEK-293
T1 sequence (P32246 1-355): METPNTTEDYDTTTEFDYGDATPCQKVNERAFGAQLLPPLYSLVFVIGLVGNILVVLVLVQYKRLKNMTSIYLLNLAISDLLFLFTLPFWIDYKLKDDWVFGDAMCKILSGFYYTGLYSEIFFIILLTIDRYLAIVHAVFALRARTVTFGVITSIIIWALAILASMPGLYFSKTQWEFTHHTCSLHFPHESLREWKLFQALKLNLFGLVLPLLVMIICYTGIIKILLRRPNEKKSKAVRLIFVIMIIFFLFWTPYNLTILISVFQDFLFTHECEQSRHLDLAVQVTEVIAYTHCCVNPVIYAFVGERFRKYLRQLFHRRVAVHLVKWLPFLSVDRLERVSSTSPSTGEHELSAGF
Description: RANTES-induced CCR1/HEK-293 transfectant migration. The test is classed as cell-based. The settings on record: ≦ 5% standard error; NA = not active; read-out: IC50 (μM) RANTES-Induced CCRI/HEK Migration. On the procedure: Human embryonic kidney cells 293 (HEK-293) transfected to express human CCR1, CCR3, or CCR5 receptors were cultured in Dulbecco's Modified Eagles Medium (DMEM, Biowhiftaker, Walkersville, Md.) containing 10% Fetal Bovine Serum (FBS, Hyclone, Logan, Utah), 2 mM glutamine and 100 U/ml penicillin and streptomycin (Quality Biologicals, Gaithersburg, Md.). Peripheral blood mononuclear cells were isolated from fresh normal donor apheresis packs by centrifugation over Ficoll. Monocytes were enriched by 85–95% using percoll fractionation (Pharmacia, Piscataway, N.J.).
The number of cells migrating to the chemokine mixtures was determined for binding media alone, and chemokine treated and untreated cells. HEK-293 cells transfected to express human CCR1, CCR3 or CCR5 receptors were resuspended in binding media at 7.5×10^5 cells/ml. Ten μm polyvinyl-free polycarbonate membranes (Neuro Probe) were treated with 47 ug/ml rat tail collagen type 1 (Collaborative Biomedical Products, Bedford, Md.) in RPMI-1640 overnight, dried and placed over the chemoattractants. The assembled chemotaxis chambers were incubated in a humidified CO2 incubator for 5.5–6 hours. […] The stained and dried membrane was mounted and the cells on the underside of the membrane were counted at 200× magnification. […]

As for `CSCC[C@H](NC(=O)c1cc(C(=CCC[C@H]2CC[C@@]3(C)C(CCC4C3CC[C@@]3(C)C4CC[C@@H]3C(C)CCCC(C)C)C2)c2cc(Cl)c(O)c(C(=O)N[C@@H](CCSC)C(=O)O)c2)cc(Cl)c1O)C(=O)O` (stereo partly shown) [Compound 15], the IC50 was 12.7 µM.

For the origin of these results see patent publication US7122533B2, “Cosalane compounds and methods for their use” (The United States of America as represented by the …, priority 1999, dated 2006).
